Test [1] addresses Aldo-keto reductase family 1 member A1 (Rattus norvegicus, UniProt P51635). As to the kind of experiment: In vitro inhibitory activity against rat kidney Aldehyde reductase.
The target of test [2] is Aldo-keto reductase family 1 member B1 (Rattus norvegicus, UniProt P07943). The test is described as follows: In vitro inhibitory activity against partially purified rat lens Aldose reductase at a dose of 5e-7M.

Chains of the proteins cited; added tags and fusions are not shown. Lines headed by an entry give the natural chain unless they say otherwise; changes in a name come on top.
UniProt P51635: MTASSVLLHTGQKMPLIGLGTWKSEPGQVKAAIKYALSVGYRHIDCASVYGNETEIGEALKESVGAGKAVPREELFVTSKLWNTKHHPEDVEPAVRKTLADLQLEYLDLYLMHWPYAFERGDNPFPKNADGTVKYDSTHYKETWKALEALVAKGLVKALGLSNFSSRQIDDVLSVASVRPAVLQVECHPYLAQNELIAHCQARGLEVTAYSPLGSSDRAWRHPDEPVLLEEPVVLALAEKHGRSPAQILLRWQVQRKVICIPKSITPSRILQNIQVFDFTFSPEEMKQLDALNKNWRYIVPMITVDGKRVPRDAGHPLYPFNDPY

Usually IC50 stands for the concentration at which inhibition is half-maximal. `CCOC(=O)C1=C(O)C(=O)N(Cc2ccccc2)C1`: the IC50 was 32 µM in test [1] and 0.11 µM in test [2].

These data come from ChEMBL document CHEMBL1129571 (J Med Chem, 1996).
